Experimental data reported in patent publication US20100086607A1, “Self-Assembled Biodegradable Nanoparticles for Medical and Biological Applications” (UNIVERSITY OF SOUTH CAROLINA, priority 2008, published 2010).
Where two headings read alike, the source gives them in different places.

Assay type: physicochemical
Settings: for relative absorbance (ELISA, active rhBMP-2): 100 μg/ml in PBS containing 5 wt % PLEOF
Experimental: The stability and activity of the released protein from the NPs was assessed with recombinant human bone morphogenetic protein-2 (rhBMP-2). To test the stability of the protein, 100 μg/ml rhBMP-2 was incubated in PBS containing 5 wt % PLEOF. Samples were removed with time and the enzymatically active concentration of rhBMP-2 was measured by enzyme-linked immunosorbent assay (ELISA) using a BMP Quantikine kit (R&D Systems, Minneapolis, Minn.). The relative absorbance measured after 1, 15, and 30 days was 100.0±7.5, 102.0±7.6, and 103.0±7.7, respectively. […] To test the activity of the released protein, rhBMP-2 was conjugated to PLAF-NHS NPs, and the suspension was dialyzed against PBS to remove the by-product, N-hydroxy succinimide. 1 mg rhBMP-2 conjugated NPs were placed in microcentrifuge tubes and incubated with 1 ml PBS. At each time point, the suspension was centrifuged, supernatant was removed, and the enzymatically active concentration of rhBMP-2 was measured by ELISA. As incubation time was increased from 1 to 5, 10, 21, 35, and 42 days, the percent of the released protein increased from 2.9±0.2 to 13.8±0.3, 26.1±0.9, 38.6±0.7, 45.8±0.9, and 48.7±0.7%, respectively, and the NPs had completely degraded after 42 days. After complete degradation of the NPs, about 50% of the released protein was enzymatically active.

Row | Substance | time to complete degradation of the NPs | released protein enzymatically active (after complete degradation of the NPs) | percent of the released protein (active, ELISA) (incubation time 1 day in PBS) | percent of the released protein (active, ELISA) (incubation time 5 days in PBS) | percent of the released protein (active, ELISA) (incubation time 10 days in PBS) | percent of the released protein (active, ELISA) (incubation time 21 days in PBS) | percent of the released protein (active, ELISA) (incubation time 35 days in PBS) | percent of the released protein (active, ELISA) (incubation time 42 days in PBS) | stability of the protein in the assay | relative absorbance (ELISA, active rhBMP-2) (after 1 day) | relative absorbance (ELISA, active rhBMP-2) (after 15 days) | relative absorbance (ELISA, active rhBMP-2) (after 30 days)
1 | rhBMP-2 conjugated NPs: rhBMP-2 conjugated to PLAF-NHS NPs | 42 days | about 50% | 2.9±0.2% | 13.8±0.3% | 26.1±0.9% | 38.6±0.7% | 45.8±0.9% | 48.7±0.7% |  |  |  | 
2 | recombinant human bone morphogenetic protein-2 [rhBMP-2] |  |  |  |  |  |  |  |  | stable for 30 days | 100.0±7.5 | 102.0±7.6 | 103.0±7.7
